System: induced pluripotent stem cell-derived myoblasts
Experiment: PAX7 mRNA expression in induced pluripotent stem cell-derived myoblasts
Type: cell-based, human
Conditions: 20 ng/ml bFGF, 3 μM CHIR99021, 2.5 μg/ml DLL1, alone or combined; vs untreated control (FIG. 1)

B1: DLL1: Delta-like protein 1, Notch agonist (protein, UniProt O00548 18-723, looked up)
Delta-like protein 1: QVWSSGVFELKLQEFVNKKGLLGNRNCCRGGAGPPPCACRTFFRVCLKHYQASVSPEPPCTYGSAVTPVLGVDSFSLPDGGGADSAFSNPIRFPFGFTWPGTFSLIIEALHTDSPDDLATENPERLISRLATQRHLTVGEEWSQDLHSSGRTDLKYSYRFVCDEHYYGEGCSVFCRPRDDAFGHFTCGERGEKVCNPGWKGPYCTEPICLPGCDEQHGFCDKPGECKCRVGWQGRYCDECIRYPGCLHGTCQQPWQCNCQEGWGGLFCNQDLNYCTHHKPCKNGATCTNTGQGSYTCSCRPGYTGATCELGIDECDPSPCKNGGSCTDLENSYSCTCPPGFYGKICELSAMTCADGPCFNGGRCSDSPDGGYSCRCPVGYSGFNCEKKIDYCSSSPCSNGAKCVDLGDAYLCRCQAGFSGRHCDDNVDDCASSPCANGGTCRDGVNDFSCTCPPGYTGRNCSAPVSRCEHAPCHNGATCHERGHRYVCECARGYGGPNCQFLLPELPPGPAVVDLTEKLEGQGGPFPWVAVCAGVILVLMLLLGCAAVVVCVRLRLQKHRPPADPCRGETETMNNLANCQREKDISVSIIGATQIKNTNKKADFHGDHSADKNGFKARYPAVDYNLVQDLKGDDTAVRDAHSKRDTKCQPQGSSGEEKGTPTTLRGGEASERKRPDSGCSTSKDTKYQSVYVISEEKDECVIATEV
PAX7 mRNA expression: increase in PAX7 expression

From patent US20180245048A1, “METHODS AND COMPOSITIONS FOR EXPANSION AND DIFFERENTIATION OF SKELETAL MUSCLE STEM CELLS OR PROGENITOR CELLS” (AGENCY FOR SCIENCE, TECHNOLOGY AND RESEARCH, priority 2015, published 2018)
